Experimental data: paper PMC5646861, “Structural and functional analysis of SMO-1, the SUMO homolog in Caenorhabditis elegans” (PLoS ONE, 2017)

Sequences of proteins named here, by UniProt entry; tags and fusion partners are left off. A change or cut given only in a name is not applied to a line headed by its entry. Residues count along the entry.
UniProt P29590, 547-573: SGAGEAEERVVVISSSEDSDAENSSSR
UniProt P19893: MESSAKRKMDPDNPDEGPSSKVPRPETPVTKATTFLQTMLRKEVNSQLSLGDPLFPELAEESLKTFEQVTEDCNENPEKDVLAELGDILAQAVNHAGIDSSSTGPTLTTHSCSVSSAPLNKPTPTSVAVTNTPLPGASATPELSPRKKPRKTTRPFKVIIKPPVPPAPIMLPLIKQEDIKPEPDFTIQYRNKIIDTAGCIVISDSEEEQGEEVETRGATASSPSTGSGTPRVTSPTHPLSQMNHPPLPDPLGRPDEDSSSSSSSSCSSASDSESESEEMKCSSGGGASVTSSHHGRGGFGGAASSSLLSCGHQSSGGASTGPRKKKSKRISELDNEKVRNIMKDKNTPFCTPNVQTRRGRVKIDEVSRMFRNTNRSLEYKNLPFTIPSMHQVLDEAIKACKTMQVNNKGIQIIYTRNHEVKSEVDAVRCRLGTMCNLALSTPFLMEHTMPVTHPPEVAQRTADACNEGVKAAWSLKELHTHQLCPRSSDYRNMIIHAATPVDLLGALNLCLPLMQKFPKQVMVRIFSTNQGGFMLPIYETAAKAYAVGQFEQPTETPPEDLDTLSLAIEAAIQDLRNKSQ

Key:
PML SIM (Homo sapiens) = PML SIM (Homo sapiens) (UniProt P29590)
[1] = target: IE2 SIM (Human cytomegalovirus) (UniProt P19893)

SMO-1 (from UniProt P55853)
Kd (PML SIM (Homo sapiens)): 100 µM | Kd [1]: 100 µM
